Patent US20170107254A1, “Modified Antimicrobial Peptides” (priority 2014, published 2017)
Converted amounts (≈) assume the structure as drawn. Where two headings read alike, the source gives them in different places.

Key:
C. albicans SC5314 [1] = assay: MIC in the presence of 10% sterile filtered human saliva; assay type: cell-based
Method: AMPs of the same sequence length were tested versus C. albicans SC5314 in the presence of 10% (v/v) filtered human saliva at pH 7.0. Positive control is 1×RPMI-1640+cells, no peptide. Data is expressed as percentage of the positive growth controls. Data is the mean±standard error of the mean. (n=3)
Determination of Minimum Inhibitory Concentration (MIC) in Presence of Sterile Filtered Saliva
To test if saliva protease could result in a reduction in AMP antifungal activity against C. albicans, antifungal susceptibility testing was conducted in the presence of 10% (v/v) sterile filtered human saliva.

C. albicans SC5314 [2] = details: neutral pH
C. albicans SC5314 [3] = assay type: cell-based
Method: 1×RPMI-1640 Buffered with Citrate Phosphate Buffer
Citrate phosphate buffer was prepared by mixing 0.1 M citric acid and 0.2 M dibasic sodium phosphate dodecahydrate in the proportions indicated in the Table 2 and the volume adjusted to 90 ml with dH2O.
pH buffered medium was prepared by dissolving 1.04 g RPMI-1640 premix powder in 10 ml citrate phosphate buffer. The volume was then adjusted to 40 ml with dH2O and the pH adjusted by addition of the acid or base. The volume was adjusted to 50 ml with dH2O. The medium was then filter sterilized by vacuum filtration through a 0.2 μm filter and stored at 4° C. and kept for up to 2 weeks.
The pH of RPMI-1640 was altered, using citrate phosphate buffer, to reflect the more acidic pH environment in the oral cavity. NP319 and NP377 were active against C. albicans SC5314 from pH 5.5-7.0 (Table 2). For all AMPs tested the optimum pH for activity was pH 5.5. NP377 maintained activity at 2 μg/ml from pH 5.5-7 with reduced activity at pH 5.

[4] = 10% (v/v) sterile filtered human saliva, pH 7.0

SMILES	MIC50 (C. albicans SC5314 [1]; [4])	inhibition of C. albicans SC5314 growth (C. albicans SC5314 [2])	pH range with activity against C. albicans SC5314 (C. albicans SC5314 [3])	MIC50 (C. albicans SC5314 [3]; SC5314, pH 4.5) [µg/mL]	MIC50 (C. albicans SC5314 [3]; SC5314, pH 5) [µg/mL]	MIC50 (C. albicans SC5314 [3]; SC5314, pH 5.5) [µg/mL]	MIC50 (C. albicans SC5314 [3]; SC5314, pH 6) [µg/mL]	MIC50 (C. albicans SC5314 [3]; SC5314, pH 6.5) [µg/mL]	MIC50 (C. albicans SC5314 [3]; SC5314, pH 7) [µg/mL]	MIC100 (C. albicans SC5314 [3]; pH 4.5) [µg/mL]	MIC100 (C. albicans SC5314 [3]; pH 5) [µg/mL]	MIC100 (C. albicans SC5314 [3]; pH 5.5) [µg/mL]	nature of growth inhibition by MFC testing (C. albicans SC5314 [3]; pH 5.5-6.0)	MIC100 (C. albicans SC5314 [3]; pH 6) [µg/mL]	MIC100 (C. albicans SC5314 [3]; pH 6.5) [µg/mL]	MIC100 (C. albicans SC5314 [3]; pH 7) [µg/mL]	MIC100 (C. albicans SC5314 [1]; [4]) [µg/mL]	antifungal activity in the presence of filtered human saliva (C. albicans SC5314 [1]; filtered human saliva)	MIC100 (C. albicans SC5314 [2]; no saliva, 24 h incubation at 37° C.) [µg/mL]
N[C@H](Cc1c[nH]cn1)C(=O)N[C@H](Cc1c[nH]cn1)C(=O)N[C@H](Cc1c[nH]cn1)C(=O)N[C@H](Cc1c[nH]cn1)C(=O)N[C@H](Cc1c[nH]cn1)C(=O)N[C@H](Cc1c[nH]cn1)C(=O)N[C@H](Cc1c[nH]cn1)C(=O)N[C@H](Cc1c[nH]cn1)C(=O)N[C@H](Cc1c[nH]cn1)C(=O)N[C@H](Cc1c[nH]cn1)C(=O)N[C@H](Cc1c[nH]cn1)C(=O)N[C@H](Cc1c[nH]cn1)C(=O)N[C@H](Cc1c[nH]cn1)C(=O)N[C@H](Cc1c[nH]cn1)C(=O)N[C@H](Cc1c[nH]cn1)C(=O)O [NP365, dHdHdHdHdHdHdHdHdHdHdHdHdHdHdH]	failed to demonstrate a MIC50	did not inhibit	5.5-6.0	>64	64 (≈ 30.8 µM)	8 (≈ 3.86 µM)	32 (≈ 15.4 µM)	32 (≈ 15.4 µM)	>64	>64	>64	64 (≈ 30.8 µM)	fungistatic and not fungicidal	>64	>64	>64			
N=C(N)NCCC[C@H](NC(=O)[C@H](CCCNC(=N)N)NC(=O)[C@H](CCCNC(=N)N)NC(=O)[C@H](CCCNC(=N)N)NC(=O)[C@H](CCCNC(=N)N)NC(=O)[C@H](CCCNC(=N)N)NC(=O)[C@H](CCCNC(=N)N)NC(=O)[C@H](CCCNC(=N)N)NC(=O)[C@H](CCCNC(=N)N)NC(=O)[C@H](CCCNC(=N)N)NC(=O)[C@H](CCCNC(=N)N)NC(=O)[C@H](CCCNC(=N)N)NC(=O)[C@H](CCCNC(=N)N)NC(=O)[C@H](CCCNC(=N)N)NC(=O)[C@@H](N)CCCNC(=N)N)C(=O)O [NP319]	8 to 16 µg/mL			64 (≈ 27.1 µM)	8 (≈ 3.39 µM)	2 (≈ 0.847 µM)	2 (≈ 0.847 µM)	2 (≈ 0.847 µM)	4 (≈ 1.69 µM)	>64	32 (≈ 13.6 µM)	4 (≈ 1.69 µM)		4 (≈ 1.69 µM)	2 (≈ 0.847 µM)	8 (≈ 3.39 µM)	32	retain antifungal activity	32 (≈ 13.6 µM)
